{"source": "paper PMC6852655", "about": "(International Journal of Cancer, 2019)", "key": {"PC-3 xenografts": {"tested_on": "PC-3 xenografts", "assay": "Experimental in vivo therapy", "design": "species or system BALB/c nu/nu mice", "settings": "6 cycles iv every second day; n=11-12"}, "PC-3 cells": {"tested_on": "PC-3 cells", "settings": "postirradiation treatment; cited from earlier work"}}}
{"substance": "trastuzumab: anti-HER2 monoclonal antibody [reference compound]", "values": [{"measurement": "Median survival compared with controls", "setting": "PC-3 xenografts", "result": "same median survival as the mice in vehicle group"}, {"measurement": "PC-3 cell survival in vitro", "setting": "PC-3 cells", "result": "twofold decrease"}]}
